# scFv variants of Ab-14 (light chain) against a SARS-CoV-2 spike peptide

The target is the same throughout: PDVDLGDISGINAS, from the HR2 region of SARS-CoV-2 spike.

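Phage display of a naive human antibody library on the peptide gave the parent. The variants were designed computationally from a first round of random CDR variants and then made and measured. Group labels follow the data file (En: ensemble of fine-tuned language models; GP: Gaussian process model; HC: hill climbing; Gen: genetic algorithm; Gibbs: Gibbs sampling; a sequence that several methods proposed may carry one label only). In AlphaSeq, yeast of one mating type display the scFv and yeast of the other type display the target. After mating in shaken culture at 30 °C for 16 h, diploids were selected and their barcode pairs sequenced. Scores were corrected for input abundance and mapped to Kd with protein pairs of known affinity run in the same pool. Mating was done six times.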

Parent: Ab-14, a human scFv built as VH, a 15-residue (Gly4Ser)3 linker, VL. Only the CDRs of the light chain vary.
VH: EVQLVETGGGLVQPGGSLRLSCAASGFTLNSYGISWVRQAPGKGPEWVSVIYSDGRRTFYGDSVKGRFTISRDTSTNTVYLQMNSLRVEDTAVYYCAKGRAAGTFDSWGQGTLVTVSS
VL: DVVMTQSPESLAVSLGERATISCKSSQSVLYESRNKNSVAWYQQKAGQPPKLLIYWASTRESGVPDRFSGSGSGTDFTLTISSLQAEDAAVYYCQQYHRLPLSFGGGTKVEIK

Each variant is given by its three light chain CDRs, as the data file delimits them; those of the parent are KSSQSVLYESRNKNSVA, WASTRES, QQYHRLPLS.
Variants here have more than six changes.
The read-out is the apparent dissociation constant on a log10 scale (nM): the lower, the stronger.
The mean shown is taken over the replicates in which the pair was detected.
Where no diploid with the target was found in any replicate, the entry reads "no signal": below detection, most likely a poor binder, though not proof of it.
Nonspecific signal, from three strains lacking the peptide, appeared in 4% of pairings of all light chain designs, centred on 2.64 (5% of these signals below 1.59); values are not corrected for it.
The authors averaged sequences with at least three values out of six and counted those with two or fewer as poor binders.
Of ten entries with the parent sequence, four were seen in most replicates (averages 0.34 to 2.37), three in one and three in none, so single entries are noisy.
Values of this round are not directly comparable with the first-round values of the same sequences.

The variant QLQLQPLFGANAQSSIA / DVSEADM / QQYARLPLH [En_Gibbs] gave 1.46 (1 of 6 replicates).
The variant KLEQSDLYESRNKQSVA / NASERER / QQYHRLPLS [GP_Gibbs] gave 0.40 (6 of 6 replicates).
The variant HITYGMYVAGRHSSSIA / QAETRAK / QQYDRLPLA [En_Gen] gave 1.52 (5 of 6 replicates).
The variant MITEGLLGENKNSSNIA / SQNIKTA / QQYQRLPLT [En_Gibbs] gave 1.19 (6 of 6 replicates).
The variant KIGMTLNQLMHQKNNVA / DLVTREN / QQYHRLPLS [En_Gen] gave 0.49 (6 of 6 replicates).
The variant KLRMMTLTGGYFKNSVA / QVSTREN / QSYHRLPLS [En_HC] gave 2.01 (6 of 6 replicates).
The variant KMRQSWWYESRMKWSVA / NASERES / QQYHRLPLS [GP_Gibbs] gave 1.15 (6 of 6 replicates).
The variant KLRQLSHIESFNKNNVA / EMTTRES / QSYDRLPLS [En_HC] gave -0.09 (6 of 6 replicates).
The variant MMSQVTGLGQRQRNNVA / QTSEREP / QQYDRLPLI [En_Gen] gave 2.47 (2 of 6 replicates).
The variant MISSLYNMGQFAINSVA / QASERNE / QQYDRLPLI [En_Gen] gave 2.16 (5 of 6 replicates).
The variant TIGQTLMYGKRNKNNVA / EVSERLN / QQYDRLPLL [En_Gen] gave 1.08 (6 of 6 replicates).
The variant MISQLYNMGQFAINSVA / QASERVN / QQYDRLPLM [En_Gen] gave 1.57 (6 of 6 replicates).
The variant KMSQENPYESRNSNSVA / NASTREM / QQYHRLPLS [GP_Gibbs] gave 0.33 (6 of 6 replicates).
The variant HTSDLIMVASRNKNSVA / EESTRPD / QQYHRLPLS [En_HC] gave 0.87 (6 of 6 replicates).
The variant KLTTVTGTEKVKGNNVA / EMETRER / QQYNRLPLA [En_Gen] gave -0.19 (6 of 6 replicates).
The variant FMEMDFQENSGRGNSVA / SEEVKTR / QHYGRLPLS [En_Gibbs] gave no signal (0 of 6 replicates).
The variant SLIPFENQIMKGTNNIA / HTSVRAS / QQYMRLPFV [En_Gibbs] gave 0.74 (6 of 6 replicates).
The variant HLSQSWLMESRNSNSVA / DASTRLS / QQYHRLPLS [GP_Gibbs] gave 0.24 (6 of 6 replicates).
The variant KVQQSELGGSRNKNSVA / NASTRED / QQYHRLPLS [GP_Gibbs] gave -0.16 (6 of 6 replicates).
The variant KVSQSVLMESCNVNNVA / NASTRED / QQYHRLPLS [GP_Gibbs] gave 0.48 (6 of 6 replicates).
The variant MVSQLMLWGMHVKNSIA / EAVTRYN / QQYDRLPLF [En_Gen] gave 2.01 (1 of 6 replicates).
The variant IISGVMLVESKHINSVA / NAETREY / QHYDRLPLS [En_HC] gave 1.44 (6 of 6 replicates).
The variant KLVGPDDNDNQDMRAVA / DENTLGN / QQYHRLPLG [En_Gibbs] gave 1.61 (6 of 6 replicates).
The variant KVSEFMRGLMKKKDSIA / DNDTRNS / QQYDRLPLS [En_Gen] gave 2.41 (6 of 6 replicates).
The variant MISDLMLYGSRAKNPIA / NASMREY / QQYHRLPLE [En_HC] gave 1.61 (6 of 6 replicates).
The variant HMSMLSLMGSRQRNSVA / QMTTREN / QQYDRLPLM [En_Gen] gave 0.61 (6 of 6 replicates).
The variant KISMLFNYESTNKNSIA / EMTTRES / QHYHRLPLS [En_HC] gave 0.47 (6 of 6 replicates).
The variant KMNMAFQQDLMDEYSVA / DHMLRVT / QQYGRLPLS [En_Gibbs] gave 1.83 (4 of 6 replicates).
The variant KLLISVLDEERNDNSVA / NASHRLS / QQYHRLPLS [GP_Gibbs] gave 0.81 (6 of 6 replicates).
The variant TIGVTLMQGIRNRSNVA / EVSERLN / QQYDRLPLT [En_Gen] gave 1.96 (6 of 6 replicates).
The variant KIGMTLNQLMHKKNNVA / DLVERAN / QQYFRLPLS [En_Gen] gave -0.18 (6 of 6 replicates).
The variant FLAYASDQTGLQKNAIA / QVNLKEN / QQYMRLPLA [En_Gibbs] gave 1.53 (6 of 6 replicates).
The variant KISMMSSIESIMHNSVA / QTSEREN / QQYDRLPLS [En_HC] gave 0.71 (6 of 6 replicates).
The variant MISQLWNMGSFAINSVA / QASQRNE / QQYDRLPLM [En_Gen] gave 1.19 (6 of 6 replicates).
The variant KLYDMSALTMSNIRNVA / DNSTREA / QQYHRLPLS [En_Gen] gave 0.10 (6 of 6 replicates).
The variant KLSQSNLYEDRNANNVA / NASQRES / QEYHRLPLS [GP_Gibbs] gave 0.33 (6 of 6 replicates).
The variant IMKEGQEEDAARLNNIA / DHYTRAT / QQYARLPLH [En_Gibbs] gave no signal (0 of 6 replicates).
The variant KLSMSVLYEDRHSNSVA / NASKRFS / QQYHRLPLS [GP_Gibbs] gave 0.37 (6 of 6 replicates).
The variant MISDLTMYGSRNVNSVA / DLSTRGK / QQYHRLPLS [En_HC] gave 0.13 (6 of 6 replicates).
The variant KLSQLFYKESSNKNNVA / EMTTRGS / QQYDRLPLS [En_HC] gave -0.05 (6 of 6 replicates).
The variant HLELEYMQMMKDHNSIA / DTEHKTQ / QQYFRLPIS [En_Gibbs] gave 0.35 (6 of 6 replicates).
The variant KLDQKMNQFGQNGNNIA / HGEEFRI / QQYHSLPLS [En_Gibbs] gave 4.59 (1 of 6 replicates).
The variant KLTMITGLEKVSGNNVA / EMETRER / QQYNRLPLA [En_Gen] gave 0.12 (6 of 6 replicates).
The variant KISQMVKVGATHNNSIA / EEVTRAK / QQYHRLPLS [En_Gen] gave 1.31 (6 of 6 replicates).
The variant KLGQSSAMTSRNKNNVA / DLNERER / QQYHRLPLS [En_HC] gave -0.17 (6 of 6 replicates).
The variant SLHMMPPVGYALDANVA / NASQLFS / QQYFRLPLT [En_Gibbs] gave 0.88 (6 of 6 replicates).
The variant TLWDSIQGGDKAKKNVA / DRQVRMV / QQYYRLPLS [En_Gibbs] gave 0.53 (6 of 6 replicates).
The variant MISQLINMGQFAINSVA / QAEIRNE / QQYDRLPLT [En_Gen] gave no signal (0 of 6 replicates).

Reference: Li et al. 2023, doi:10.1038/s41467-023-39022-2. File: FLAb, binding data.